# In patent publication US6887202B2, “Systems and methods for monitoring health and delivering drugs transdermally” (Science Applications International Corporation, priority 2000, dated 2005):
# Protein sequences, listed by entry. Tags and fused reporters are not part of them. Residues count along the entry.
# UniProt P04757, 26-499: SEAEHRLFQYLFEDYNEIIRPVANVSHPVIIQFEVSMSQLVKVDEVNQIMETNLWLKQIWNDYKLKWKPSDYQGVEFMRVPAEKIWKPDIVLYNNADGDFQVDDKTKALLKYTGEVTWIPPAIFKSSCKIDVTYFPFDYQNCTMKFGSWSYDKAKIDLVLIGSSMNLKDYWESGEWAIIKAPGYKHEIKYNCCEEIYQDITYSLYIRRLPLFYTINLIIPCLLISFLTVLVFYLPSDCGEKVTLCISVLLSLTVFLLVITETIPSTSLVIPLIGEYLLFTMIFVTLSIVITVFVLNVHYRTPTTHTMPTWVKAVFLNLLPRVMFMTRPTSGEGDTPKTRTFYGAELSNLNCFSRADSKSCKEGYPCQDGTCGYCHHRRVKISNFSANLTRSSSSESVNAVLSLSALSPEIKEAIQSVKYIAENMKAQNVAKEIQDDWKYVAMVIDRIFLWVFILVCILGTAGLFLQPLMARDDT
# UniProt P12392, 21-495: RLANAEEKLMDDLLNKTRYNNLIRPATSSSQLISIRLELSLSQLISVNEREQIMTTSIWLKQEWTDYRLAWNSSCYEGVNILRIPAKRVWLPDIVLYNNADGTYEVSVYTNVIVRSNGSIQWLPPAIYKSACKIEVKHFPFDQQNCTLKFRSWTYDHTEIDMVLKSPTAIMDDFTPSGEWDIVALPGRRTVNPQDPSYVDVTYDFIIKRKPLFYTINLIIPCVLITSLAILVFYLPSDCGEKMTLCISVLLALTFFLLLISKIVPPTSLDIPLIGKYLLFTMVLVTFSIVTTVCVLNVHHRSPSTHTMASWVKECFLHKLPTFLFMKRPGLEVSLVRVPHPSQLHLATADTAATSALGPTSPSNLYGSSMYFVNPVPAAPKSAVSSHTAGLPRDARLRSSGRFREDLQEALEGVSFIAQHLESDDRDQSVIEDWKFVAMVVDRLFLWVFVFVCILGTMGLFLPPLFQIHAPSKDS
# Molecular target: T1, α3/β4 nAChR (Rattus norvegicus, UniProt P04757+P12392)
# T1 construct: expressed in transfected cells
# Assay: Frontal chromatography with α3/β4 nAChR-IAM stationary phase ([3H]-EB marker)
# Type: binding
# Method: Rat whole forebrain or transfected cells are suspended in 50 mM Tris-HCI, pH 7.4, (buffer A), homogenized for 30 seconds with Brinkmann Polytron, and centrifuged at 40,000×g for 10 min at 4° C. The pellet is resuspended in 6 ml of 2% deoxycholate or 2% cholate in buffer A and stirred for 2 hours. The mixture is centrifuged at 35,000×g for 30 minutes, and the supernatant containing nAChR-deoxycholate solution is collected.
# Dried IAM particles are suspended in 4 ml of the obtained detergent solutions containing nAChR subunits or subtypes. For the immobilization of one nAChR subtype, the mixture of IAM-detergent-receptor is stirred for 1 hour at room temperature. The suspension is dialyzed against 2×1 L buffer A for 24 hours at 4° C. The IAM LC support with immobilized nAChRs is then washed with buffer A, centrifuged and the solid collected.
# Chromatography based on nAChR-LAMcolumn or nAChR-liposome-Superdex 200 column: The nAChR-IAM particles or nAChR-Superdex gel beads are packed in a HR5/2 glass column and connected to a HPLC pump. […] All chromatographic experiments are performed at flow rate 0.4 ml/min at room temperature.
# The chromatographic data is summed up in 1-min intervals and smoothed using the Microsoft Excel program with a 10 point moving average.
Structure (SMILES),retention volume of [3H]-EB (60 pM [3H]-EB),retention volume of [3H]-EB (450 pM [3H]-EB),retention volume for 60 pM [3H]-EB (column stability) (day 1 to day 10 of continuous use),"retention volume for 60 pM [3H]-EB (column stability) (day 50, after 40 days storage at 4° C.)",mobile phase concentration required to decrease the retention volume of 60 pM [3H]-EB from 9.5 ml to 6 ml (α3/β4 nAChR column (0.5×1.25 cm))
"Clc1ccc(C2CC3CCC2N3)cn1 (centres unmarked) [[^3H]-EB, [^3H]-epibatidine]",23 mL,8 mL,9.5±0.05 ml,9.7±0.08 ml,–
Clc1ccc(C2CC3CCC2N3)cn1 (racemic) [(±)-Epibatidine],–,–,–,–,0.12 nM
